# Assays:
# The chains behind the UniProt entries cited, without tags or fusion partners. Where a name states a change or a piece, a line headed by the entry shows the natural chain unless it says otherwise. Residues count along the entry.
# UniProt P04913, 32-126: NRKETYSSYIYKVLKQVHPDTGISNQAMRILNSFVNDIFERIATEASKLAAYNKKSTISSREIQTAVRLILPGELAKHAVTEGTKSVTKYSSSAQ
# UniProt P04913, whole entry, chain 1 of 2: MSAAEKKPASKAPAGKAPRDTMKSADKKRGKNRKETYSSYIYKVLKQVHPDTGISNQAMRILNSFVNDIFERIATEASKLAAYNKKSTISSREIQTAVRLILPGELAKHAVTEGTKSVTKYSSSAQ
# [1] = target: T1, H2B_(32-126) (the H2B part of H2AB) (S. pombe, UniProt P04913 32-126); assay: crystal structure; H2AB and Sad1_(110-126) mixed at a molar ratio of 1:2; 0.2 M potassium nitrate, 20% w/v PEG-3350; 2.15 Å; conditions: both partners purified
# T1 construct: In the crystal it stood on one chain with H2A_(15-108); source: E. coli Rosetta, purified as part of the H2AB fusion
# [2] = target: T2, S. pombe H2A-H2B heterodimer (S. pombe, UniProt P04913 1-126; P04909 1-132); assay: ITC; MicroCal ITC200, 20 °C; 25 mM Tris-HCl pH 8.0, 400 mM NaCl, 2 mM DTT; Sad1 (500 μM) titrated into H2AB (50 μM); conditions: both partners purified
# T2 construct: histone H2B, S. pombe; histone H2A, S. pombe; also called H2B/H2A heterodimer; source: E. coli Rosetta, co-expressed from a modified pCDF-Duet vector, purified; copies: 1 + 1
Binder,binding result [1],Kd [2] [µM]
"ESDGDDEEFVNEEYENS (peptide, UniProt Q09825 110-126, looked up, Cleavage of GST is told only in general for all Sad1 fragments not needed with the tag; also called Sad1HBM (in the crystal structure); source: E. coli Rosetta, purified; not shown: GST, N-terminal, cleaved) [Sad1_(110-126)]",binds,
"Sad1_(1-169) (domain or fragment, S. pombe, UniProt Q09825 1-169, looked up, Cleavage is told in general for proteins not needed with their tag; used in ITC, SEC and MST; also called Sad1NTD; source: E. coli Rosetta, purified (glutathione Sepharose 4B, 3C digestion on beads, Superdex); not shown: GST, N-terminal, cleaved) MFTNTPVGGKRERQNGAHPAWSTLGANSAQIHQNTADLASKMHKLRYTKIRSPPTRVSIESITPKQRFPAPNFEQAYHSNIRYEQEESDNEEFENVVKNGHEASTNVFYESDGDDEEFVNEEYENSIDEESDDEGYSLNEDTTATNASFRYPMNQRSTRKSQFYSSKFK",,7.5

# — paper PMC11109203 (Nature Communications, 2024)
